# Binding of CDR-mutated scFvs to a peptide of the spike HR2 region

All variants were tested on one target, the spike HR2 peptide PDVDLGDISGINAS (SARS-CoV-2).

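The starting antibody came from a phage panning campaign against this peptide. Library AAYL50 holds single substitutions and randomly drawn double and triple substitutions in the CDRs. The scFvs were displayed on barcoded MATa yeast, the peptide on MATalpha yeast. After mating in shaken culture at 30 °C for 16 h, diploids were selected and their barcode pairs sequenced. The ratio of observed to expected reads was calibrated, replicate by replicate, on BCL2-family standards whose Kd was known from biolayer interferometry. Mating was done three times.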

Ab-14 is the parent antibody, in scFv form: VH, then three GGGGS repeats, then VL. The heavy chain is unchanged in all variants.
VH: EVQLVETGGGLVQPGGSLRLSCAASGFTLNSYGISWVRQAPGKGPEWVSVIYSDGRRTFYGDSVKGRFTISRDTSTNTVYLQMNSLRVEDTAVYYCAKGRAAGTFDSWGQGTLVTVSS
VL: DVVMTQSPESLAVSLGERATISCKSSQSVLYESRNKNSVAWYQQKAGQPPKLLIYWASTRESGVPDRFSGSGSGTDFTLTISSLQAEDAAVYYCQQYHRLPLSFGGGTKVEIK

The parent's light chain CDRs are KSSQSVLYESRNKNSVA, WASTRES, QQYHRLPLS; each variant's own CDRs replace them letter for letter. All variants listed here change S58 of the VL, counted from its first residue. The Kd shown is the geometric mean over detected replicates; a lower Kd is a better binder. An entry "nd" has no value in the source: the pair was not observed among the diploids in any replicate. This suggests poor binding but is not conclusive.

* KSSESVLYEPRNKNSVA | WALTRES | QQYHRLPLS = 75 µM (1 of 3 replicates)
* KSSQSVLYESRNKNSVA | WAQTMES | QQYHRLMLS = 750 nM (1 of 3 replicates)
* KSSQSVLYESRNKNSVA | WHVTRES | QQYHRLPLS = nd (0 of 3 replicates)
* KSSQSVLYASRNKNSVA | YAETRES | QQYHRLPLS = 8.5 nM (3 of 3 replicates)
* KSSQSVLYESRNKNSVA | WAITREC | QQFHRLPLS = nd (0 of 3 replicates)
* KSSQSVSYESRNKNDVA | WACTRES | QQYHRLPLS = 27 µM (3 of 3 replicates)
* KNSQSVLYESRNKNSVA | WAHTMES | QQYHRLPLS = 9.4 µM (2 of 3 replicates)
* KSSQSVLYESRNKNSAA | WFITRES | QQYHRLPLS = 16 µM (1 of 3 replicates)
* TSSQSVLYEWRNKNSVA | WACTRES | QQYHRLPLS = 14 µM (3 of 3 replicates)
* KSSMSVLYESRNKNSVI | WAETRES | QQYHRLPLS = nd (0 of 3 replicates)
* MYSQSVLYESRNKNSVA | WAFTRES | QQYHRLPLS = nd (0 of 3 replicates)
* KSYQSVLYESRNKNSVA | WPDTRES | QQYHRLPLS = 8.3 µM (1 of 3 replicates)
* KSSQSVLYESRNKNSVA | WAQTRES | QQYHEDPLS = nd (0 of 3 replicates)
* KSSCSVLYESRNKYSVA | WADTRES | QQYHRLPLS = 8.7 nM (3 of 3 replicates)
* KSSQSVLYEQRNKNSVA | WTRTRES | QQYHRLPLS = 1.6 µM (1 of 3 replicates)
* KSSQSVLYESRNKNSVA | WATTRES | QQYLRLPLE = 2.6 µM (2 of 3 replicates)
* KSGQSVLYESRNKNSVA | WAWTRES | QQSHRLPLS = 19 µM (1 of 3 replicates)
* KSSQSVLYESRNKNWVA | WAKTRES | QQYDRLPLS = 23 µM (1 of 3 replicates)
* KSSQSVLYEARNKNSVI | WAETRES | QQYHRLPLS = 7.4 µM (1 of 3 replicates)
* KSSQSVLYESRNKNSVA | WAITRES | QQSHRLPLS = 870 nM (1 of 3 replicates)
* KSSQSVLYESRNKNSVA | WATKRES | QQYHRLPLY = 110 nM (3 of 3 replicates)
* KSSQSVLYFSRNKNSVA | WAHTRES | SQYHRLPLS = 4.6 µM (2 of 3 replicates)
* KSSQSVLYESRNKNSVA | WAVTRES | QQYRRLPLS = 1.2 µM (3 of 3 replicates)
* VSSQSVLYESRNKNSVA | AAITRES | QQYHRLPLS = 30 nM (3 of 3 replicates)
* ASSQSVLYESRNKNSVA | WADTRWS | QQYHRLPLS = 17 nM (3 of 3 replicates)
* KSSQSVLYESRNKSSVA | WAVTRES | QQYHALPLS = 280 nM (3 of 3 replicates)
* KSSQVKLYESRNKNSVA | WAITRES | QQYHRLPLS = 580 nM (1 of 3 replicates)
* KSSSSVLYESRNKNSVA | WAKTRES | QQYHRLPLM = 480 nM (3 of 3 replicates)
* KSSQSVLYEFRNKNSVA | WAGTCES | QQYHRLPLS = nd (0 of 3 replicates)
* KSSQSMLYESRNKNSVA | WAMTRES | MQYHRLPLS = 1.4 µM (1 of 3 replicates)
* KSSQSVLYESRNKNSVA | WADTRYS | DQYHRLPLS = 170 nM (3 of 3 replicates)
* KSSQSTLYESRNKNSVA | WAQTRRS | QQYHRLPLS = 19 µM (3 of 3 replicates)
* KSSQSVLYESHNKNSVA | WAPTRES | QQYHRLPLS = 61 µM (1 of 3 replicates)
* KSSQSVLYESRNKQSVA | WACTRES | QKYHRLPLS = 160 µM (1 of 3 replicates)
* KSSQSVLYESRNCNSVA | WACPRES | QQYHRLPLS = nd (0 of 3 replicates)
* KSSQSVPYRSRNKNSVA | WAETRES | QQYHRLPLS = 72 nM (3 of 3 replicates)
* KSSQSVLYESRNKNSVA | WAHTRES | EQYHRCPLS = 29 µM (2 of 3 replicates)
* TSSQSRLYESRNKNSVA | WARTRES | QQYHRLPLS = 3.8 µM (1 of 3 replicates)
* KSSQSVLYESRNKTSVA | WAETRES | QVYHRLPLS = 2.0 µM (3 of 3 replicates)
* KSSQSVLYESRNKNSVC | WAETRES | QQYHRLPLS = 1.7 µM (3 of 3 replicates)

The closing 3 entries, repeated:

{"CDR-L1": "TSSQSRLYESRNKNSVA", "CDR-L2": "WARTRES", "CDR-L3": "QQYHRLPLS", "Kd (apparent)": "3.8 µM", "detected": "1 of 3"}
{"CDR-L1": "KSSQSVLYESRNKTSVA", "CDR-L2": "WAETRES", "CDR-L3": "QVYHRLPLS", "Kd (apparent)": "2.0 µM", "detected": "3 of 3"}
{"CDR-L1": "KSSQSVLYESRNKNSVC", "CDR-L2": "WAETRES", "CDR-L3": "QQYHRLPLS", "Kd (apparent)": "1.7 µM", "detected": "3 of 3"}

Background: pairings of library AAYL50 with three empty control strains gave a value in 18% of cases (median 15 µM, 5th percentile 970 nM). Values in that range, when seen in few replicates, are hard to tell from nonspecific mating.

Source: Engelhart et al. 2022 (doi:10.1038/s41597-022-01779-4), MIT Lincoln Laboratory and A-Alpha Bio; data file from the FLAb repository.